Consider one substance from paper PMC5027585, “TSPO ligands stimulate ZnPPIX transport and ROS accumulation leading to the inhibition of P. falciparum growth in human blood” (Scientific Reports, 2016).

Amino acid sequences for entries named in this document (tags omitted).
UniProt P21796, whole entry: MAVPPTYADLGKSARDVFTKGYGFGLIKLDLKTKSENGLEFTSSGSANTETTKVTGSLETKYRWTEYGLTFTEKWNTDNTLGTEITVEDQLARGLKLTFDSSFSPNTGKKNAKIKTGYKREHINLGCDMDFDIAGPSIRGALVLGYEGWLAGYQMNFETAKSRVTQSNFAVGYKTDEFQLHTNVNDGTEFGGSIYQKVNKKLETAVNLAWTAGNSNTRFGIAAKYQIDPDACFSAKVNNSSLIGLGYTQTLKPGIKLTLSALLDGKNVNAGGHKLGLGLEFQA

The target of this experiment is Voltage Dependent Anion Channel (VDAC) (human (endogenous in red blood cells)) (UniProt P21796). The experiment in a line: SDS-PAGE and immunoblot (SDS-resistant forms); ghosts of healthy and infected RBCs in 5P8 buffer, solubilised in 1% Triton X-100, denaturing SDS-PAGE, immunoblot; oligomeric state read from the size of the bands.

“Voltage Dependent Anion Channel (VDAC) (from UniProt P21796 1-283) (natural protein)” displayed a stoichiometry N of 2.
